Assays:
[1] = Diameter of particles by light microscopy; assay type: physicochemical
[2] = Particle size analysis of fragmented particles (Microtrac small particle analyzer); assay type: physicochemical; details: 100 mg ammonium bicarbonate/ml; ethyl acetate; ultrasonic irradiation
Description: A 50 mg sample of the lyophilized microspheres was suspended in 5 ml of 100 percent ethanol solution and cooled in an ice water bath to 0° C. With continuous cooling, the HRP porous particles were then exposed to an ultrasonic probe (Virtis Company Inc., Virsonic 300) for different times. Samples were analyzed for particle size diameter on a Microtrac Model 7995 Small Particle Analyzer (Leeds and Northrup).
The hemoglobin particles were suspended in ethyl acetate and fragmented by subjecting them to ultrasonic irradiation with cooling by an ice bath.

[3] = 5, 10 and 20 percent by weight of protein in 10 percent (w/v) ethylene-vinyl acetate in methylene chloride

Bovine serum albumin [BSA]
particle size under light microscopy ([1]; 100 mg ammonium bicarbonate/ml, after ultrasonic irradiation, virtually all the particles): less than 1 micrometer | diameter of the porous spheres after lyophilization ([1]; before sonication, range): 20-30 micrometers | particles less than 1.7 micrometers in diameter [2]: more than 60% | suspension stability [3]: stable suspensions

From patent US6569458B1, “Process for producing small particles of biologically active molecules” (Alkermes Controlled Therapeutics, Inc., priority 1989, dated 2003)
